Measured values taken from patent publication US9440982B2 (Eolas Therapeutics, Inc., priority 2012, dated 2016).

Protein sequences, listed by entry. Tags and fused reporters are not part of them.
UniProt O43614, whole entry: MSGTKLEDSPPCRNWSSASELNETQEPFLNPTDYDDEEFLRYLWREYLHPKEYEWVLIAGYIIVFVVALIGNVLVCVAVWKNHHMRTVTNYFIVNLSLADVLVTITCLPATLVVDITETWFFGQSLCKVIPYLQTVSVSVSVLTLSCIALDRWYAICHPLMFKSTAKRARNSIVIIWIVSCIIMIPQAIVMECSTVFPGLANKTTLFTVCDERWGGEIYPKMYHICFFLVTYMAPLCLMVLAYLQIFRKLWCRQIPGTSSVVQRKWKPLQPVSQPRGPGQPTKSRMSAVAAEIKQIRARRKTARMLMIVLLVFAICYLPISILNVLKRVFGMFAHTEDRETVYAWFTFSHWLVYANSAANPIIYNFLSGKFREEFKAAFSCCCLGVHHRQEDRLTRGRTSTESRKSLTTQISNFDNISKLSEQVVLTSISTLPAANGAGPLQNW

Molecular target: T1, OX2 (Homo sapiens, UniProt O43614)
T1 construct: expressed in transfected cells; host or cells: CHO (CHO-OX2, kept under selection antibiotic)
Test: Orexin receptor cell-based functional assay, [Ca2+]i by FLIPR, CHO-OX2 cells
Settings: Table 2; CHO-OX2 cells, EC90 of OXA; read-out: IC50 Bioactivity OX2

Point of comparison: Cc1nc(C(=O)N2CC(O)CCC2CNC(=O)c2cccc3cccnc23)c(-c2cccc(F)c2)s1 (racemic) [Example 51, N-((1-(5-(3-Fluorophenyl)-2-methylthiazole-4-carbonyl)-5-hydroxypiperidin-2-yl)methyl)quinoline-8-carboxamide], IC50 0.075 µM. Against it:
- Cc1nc(C(=O)N2CC(F)CCC2CNC(=O)c2cccc3cccnc23)c(-c2ccccc2)s1 (racemic) [Example 1, N-((5-Fluoro-1-(2-methyl-5-phenylthiazole-4-carbonyl)piperidin-2-yl)methyl)quinoline-8-carboxamide] — 9.4-fold lower, 0.008 µM
- Cc1nc(C(=O)N2CCC[C@@H](C)[C@H]2CNc2ccc(C(F)(F)F)cn2)c(-c2ccc(F)cc2)s1 (racemic) [Example 11, rac-cis-(5-(4-Fluorophenyl)-2-methylthiazol-4-yl)(3-methyl-2-(((5-(trifluoromethyl)pyridin-2-yl)amino)methyl)piperidin-1-yl)methanone] — 65-fold higher, 4.9 µM
- Cc1nc(C(=O)N2CCC[C@@H](C(F)(F)F)[C@H]2CNc2ccc(C(F)(F)F)cn2)c(-c2ccccc2)s1 (racemic) [Example 14, rac-cis-(2-Methyl-5-phenylthiazol-4-yl)(3-(trifluoromethyl)-2-(((5-(trifluoromethyl)pyridin-2-yl)amino)methyl)piperidin-1-yl)methanone] — 6.1-fold higher, 0.46 µM
- Cc1nc(C(=O)N2CCC[C@@H](C)[C@H]2CNc2ncc(Br)cn2)c(-c2ccc(F)cc2)s1 (racemic) [Example 15, rac-cis-(2-(((5-Bromopyrimidin-2-yl)amino)methyl)-3-methylpiperidin-1-yl)(5-(4-fluorophenyl)-2-methylthiazol-4-yl)methanone] — higher, > 5 µM
- CCc1cnc(NC[C@@H]2[C@H](C)CCCN2C(=O)c2nc(C)sc2-c2ccc(F)cc2)nc1 (racemic) [Example 16, rac-cis-(2-(((5-Ethylpyrimidin-2-yl)amino)methyl)-3-methylpiperidin-1-yl)(5-(4-fluorophenyl)-2-methylthiazol-4-yl)methanone] — higher, > 10 µM
- COc1ccnc(NC[C@@H]2[C@H](C)CCCN2C(=O)c2nc(C)sc2-c2ccc(F)cc2)n1 (racemic) [Example 17, rac-cis-(5-(4-Fluorophenyl)-2-methylthiazol-4-yl)(2-(((4-methoxypyrimidin-2-yl)amino)methyl)-3-methylpiperidin-1-yl)methanone] — 24-fold higher, 1.8 µM
- Cc1nc(C(=O)N2CCC[C@@H](C)[C@H]2CNc2ccc(Cl)cn2)c(-c2ccc(F)cc2)s1 (racemic) [Example 18, rac-cis-(2-(((5-Chloropyridin-2-yl)amino)methyl)-3-methylpiperidin-1-yl)(5-(4-fluorophenyl)-2-methylthiazol-4-yl)methanone] — 20-fold higher, 1.5 µM
- Cc1nc(C(=O)N2CCC[C@@H](C)[C@H]2CNc2ccnc(Cl)n2)c(-c2ccc(F)cc2)s1 (racemic) [Example 19, rac-cis-(2-(((2-Chloropyrimidin-4-yl)amino)methyl)-3-methylpiperidin-1-yl)(5-(4-fluorophenyl)-2-methylthiazol-4-yl)methanone] — higher, > 10 µM
- Cc1nc(C(=O)N2CCC[C@@H](C)[C@H]2CNc2nccc(Cl)n2)c(-c2ccc(F)cc2)s1 (racemic) [Example 20, rac-cis-(2-(((4-Chloropyrimidin-2-yl)amino)methyl)-3-methylpiperidin-1-yl)(5-(4-fluorophenyl)-2-methylthiazol-4-yl)methanone] — higher, > 10 µM
- Cc1nc(C(=O)N2CCC[C@@H](C)[C@H]2CNc2cc(C(F)(F)F)ccn2)c(-c2ccc(F)cc2)s1 (racemic) [Example 21, rac-cis-(5-(4-Fluorophenyl)-2-methylthiazol-4-yl)(3-methyl-2-(((4-(trifluoromethyl)pyridin-2-yl)amino)methyl)piperidin-1-yl)methanone] — 6.9-fold higher, 0.52 µM
- Cc1nc(C(=O)N2CCC[C@@H](C)[C@H]2CNc2ncccc2C(F)(F)F)c(-c2ccc(F)cc2)s1 (racemic) [Example 22, rac-cis-(5-(4-Fluorophenyl)-2-methylthiazol-4-yl)(3-methyl-2-(((3-(trifluoromethyl)pyridin-2-yl)amino)methyl)piperidin-1-yl)methanone] — higher, > 10 µM
- Cc1nc(-c2ccccc2)c(C(=O)N2CC(F)CCC2CNC(=O)c2cccc3cccnc23)s1 (racemic) [Example 35, N-((5-Fluoro-1-(2-methyl-4-phenylthiazole-5-carbonyl)piperidin-2-yl)methyl)quinoline-8-carboxamide] — 19-fold lower, 0.004 µM
- NC1CCC(CNC(=O)c2cccc3cccnc23)N(C(=O)c2ccccc2-c2ccccc2)C1 (racemic) [Example 39, N-((5-Amino-1-(biphenylcarbonyl)piperidin-2-yl)methyl)quinoline-8-carboxamide] — 2.1-fold higher, 0.16 µM
- O=C(NCC1CCC(NCc2ccccc2)CN1C(=O)c1ccccc1-c1ccccc1)c1cccc2cccnc12 (racemic) [Example 40, N-((5-(Benzylamino)-1-(biphenylcarbonyl)piperidin-2-yl)methyl)quinoline-8-carboxamide] — 20-fold higher, 1.5 µM
- CNC1CCC(CNC(=O)c2cccc3cccnc23)N(C(=O)c2ccccc2-c2ccccc2)C1 (racemic) [Example 49, N-((1-(Biphenylcarbonyl)-5-(methylamino)piperidin-2-yl)methyl)quinoline-8-carboxamide] — 8-fold higher, 0.6 µM
- COC1CCC(CNC(=O)c2cccc3cccnc23)N(C(=O)c2nc(C)sc2-c2cccc(F)c2)C1 (racemic) [Example 50, N-((1-(5-(3-Fluorophenyl)-2-methylthiazole-4-carbonyl)-5-methoxypiperidin-2-yl)methyl)quinoline-8-carboxamide] — 3-fold lower, 0.025 µM
- Cc1nc(C(=O)N2CC(F)(F)CCC2CNC(=O)c2cccc3cccnc23)c(-c2cccc(F)c2)s1 (racemic) [Example 52, rac-N-((5,5-Difluoro-1-(5-(3-fluorophenyl)-2-methylthiazole-4-carbonyl)piperidin-2-yl)methyl)quinoline-8-carboxamide] — 7.5-fold lower, 0.01 µM
- Cc1nc(C(=O)N2CC(N)CCC2CNC(=O)c2cccc3cccnc23)c(-c2cccc(F)c2)s1 (racemic) [Example 53, N-((5-Amino-1-(5-(3-fluorophenyl)-2-methylthiazole-4-carbonyl)piperidin-2-yl)methyl)quinoline-8-carboxamide] — 10-fold higher, 0.75 µM
- Cc1nc(C(=O)N2CC(NCCO)CCC2CNC(=O)c2cccc3cccnc23)c(-c2cccc(F)c2)s1 (racemic) [Example 54, N-((1-(5-(3-Fluorophenyl)-2-methylthiazole-4-carbonyl)-5-(2-hydroxyethylamino)piperidin-2-yl)methyl)quinoline-8-carboxamide] — 16-fold higher, 1.2 µM
- COc1c(F)cccc1C(=O)NCC1CCCC(C)N1C(=O)c1nc(C)sc1-c1ccc(F)cc1 (racemic) [Example 60, rac-3-Fluoro-N-((1-(5-(4-fluorophenyl)-2-methylthiazole-4-carbonyl)-6-methylpiperidin-2-yl)methyl)-2-methoxybenzamide] — 4.9-fold higher, 0.37 µM
- Cc1cc2c(C(=O)NCC3CCCC(C)N3C(=O)c3nc(C)sc3-c3ccc(F)cc3)cccc2o1 (racemic) [Example 61, rac-N-((1-(5-(4-Fluorophenyl)-2-methylthiazole-4-carbonyl)-6-methylpiperidin-2-yl)methyl)-2-methylbenzofuran-4-carboxamide] — 5.1-fold higher, 0.38 µM
- Cc1nc(C(=O)N2CCC[C@@H](C)[C@H]2CNC(=O)c2cccc3occc23)c(-c2ccc(F)cc2)s1 (racemic) [Example 63, rac-cis-N-((1-(5-(4-Fluorophenyl)-2-methylthiazole-4-carbonyl)-3-methylpiperidin-2-yl)methyl)benzofuran-4-carboxamide] — 1.6-fold lower, 0.048 µM
- Cc1nc(C(=O)N2CCC[C@@H](C)[C@H]2CNc2nc3ccccc3s2)c(-c2ccc(F)cc2)s1 (racemic) [Example 72, rac-cis-(2-((Benzo[d]thiazol-2-ylamino)methyl)-3-methylpiperidin-1-yl)(5-(4-fluorophenyl)-2-methylthiazol-4-yl)methanone] — higher, > 4 µM
- Cc1nc(C(=O)N2CCC[C@@H](C)[C@H]2CNc2ccc(C(F)(F)F)cn2)c(-c2ccccc2)s1 (racemic) [Example 73, rac-cis-(3-Methyl-2-(((5-(trifluoromethyl)pyridin-2-yl)amino)methyl)piperidin-1-yl)(2-methyl-5-phenylthiazol-4-yl)methanone] — higher, > 3 µM
- Cc1nc(C(=O)N2CCC[C@@H](C)[C@H]2CNc2cccc3cccnc23)c(-c2ccc(F)cc2)s1 (racemic) [Example 74, rac-cis-(3-Methyl-2-((quinolin-8-ylamino)methyl)piperidin-1-yl)(5-(4-fluorophenyl)-2-methylthiazol-4-yl)methanone] — higher, > 5 µM
- Cc1nc(C(=O)N2CCC[C@@H](C)[C@H]2CNc2ncc(C(F)(F)F)cn2)c(-c2ccc(F)cc2)s1 (racemic) [Example 75, rac-cis-(3-Methyl-2-(((5-(trifluoromethyl)pyrimidin-2-yl)amino)methyl)piperidin-1-yl)(5-(4-fluorophenyl)-2-methylthiazol-4-yl)methanone] — 44-fold higher, 3.3 µM
- CC[C@@H]1CCCN(C(=O)c2nc(C)sc2-c2ccc(F)cc2)[C@@H]1CNc1ccc(C(F)(F)F)cn1 (racemic) [Example 76, rac-cis-(3-Ethyl-2-(((5-(trifluoromethyl)pyridin-2-yl)amino)methyl)piperidin-1-yl)(5-(4-fluorophenyl)-2-methylthiazol-4-yl)methanone] — higher, > 4 µM
- CC[C@@H]1CCCN(C(=O)c2nc(C)sc2-c2ccc(F)cc2)[C@@H]1CNc1nc2ccccc2o1 (racemic) [Example 77, rac-cis-(2-((Benzo[d]oxazol-2-ylamino)methyl)-3-ethylpiperidin-1-yl)(5-(4-fluorophenyl)-2-methylthiazol-4-yl)methanone] — higher, > 10 µM
- CCc1cnc(NC[C@@H]2[C@H](CC)CCCN2C(=O)c2nc(C)sc2-c2ccc(F)cc2)nc1 (racemic) [Example 78, rac-cis-(3-Ethyl-2-(((5-ethylpyrimidin-2-yl)amino)methyl)piperidin-1-yl)(5-(4-fluorophenyl)-2-methylthiazol-4-yl)methanone] — higher, > 10 µM

Same assay, conditions: Table 6; racemate vs enantiomers; read-out: OX2 IC50

Cc1nc(C(=O)N2CCC[C@@H](C)[C@H]2CNc2ccc(C(F)(F)F)cn2)c(-c2ccc(F)cc2)s1 (racemic) [Example 11, rac-cis-(5-(4-Fluorophenyl)-2-methylthiazol-4-yl)(3-methyl-2-(((5-(trifluoromethyl)pyridin-2-yl)amino)methyl)piperidin-1-yl)methanone] was tested, and the IC50 was 4.9 µM.
